For 24 compounds, relative growth results are on record in published antibiotic growth screens (doi:10.1038/s41589-023-01349-8).

This is one part of the list.

The assay concerns A. baumannii ATCC 17978. Nature of the assay: relative growth (fraction of control); higher = less inhibition. Particulars: 50 µM.
Compound `C=C(CC[C@@H](C)[C@H]1CC[C@@]2(C)C3=C(C[C@H](O)[C@]12C)[C@@]1(C)CC[C@@H](OC(=O)CC(=O)O)C(C)(C)[C@@H]1CC3)[C@@H](C)C(=O)O` showed a relative growth of 1.47.
The figure for `CO[C@H]1CN(C)C(=O)c2ccc(NC(=O)C3CC3)cc2OC[C@@H](C)N(C(=O)CN2CCOCC2)C[C@@H]1C` is 0.992; for `Cc1ccc(CCSc2ccc(Cl)c(Cl)c2)cn1` it is 0.816.
The figure for `OCCN1C[C@@H](O)[C@@H](O)C(O)C1CO` (some centres undefined) is 0.944; for `C=c1ccccc1=C1NN=C(CN2CCCC2)O1` it is 1.09.
In the case of `O=C(/C=C/c1cccc(-c2cn(CC(=O)N3CCC4(CC3)C(=O)NCN4c3ccccc3)nn2)c1)NO` it was 0.887.
For the compound `O=C(C[C@H]1CC[C@H](NS(=O)(=O)c2ccccc2)[C@@H](CO)O1)NCc1ccncn1`, the relative growth was determined as 1.07.
`CCc1nc2ccccc2c(C(=O)Nc2cccc(Cl)c2)c1C` yielded a relative growth of 1.02.
The figure for `Cl.Cl.O=C1c2c(O)ccc(O)c2C(=O)c2c(NCCNCCO)ccc(NCCNCCO)c21` is 1.96; for `COc1cccc(NC(=O)N[C@@H]2CC[C@H](CC(=O)N3CCN(C)CC3)O[C@@H]2CO)c1` it is 0.967; for `CCCC(CCC)C(=O)[O-].[Na+]` it is 1.03.
In the case of `COc1ccc(NC(=O)Nc2ccc3c(c2)[C@@H]2C[C@@H](CC(=O)NCc4ccccn4)O[C@@H](CO)[C@@H]2O3)cc1` it was 0.917; in that of `Cn1cnc(S(=O)(=O)N[C@@H]2CC[C@@H](CC(=O)Nc3ccccc3)O[C@@H]2CO)c1`, 0.927; in that of `CCS(=O)(=O)NCC[C@@H]1CC[C@@H](NC(=O)C2CC2)[C@@H](CO)O1`, 0.892.
In the case of `Cc1cc(C)n([C@@H](CC(=O)O)C(=O)O)n1` it was 0.963.
Compound `CO[C@@H](CN(C)S(=O)(=O)c1cccc(Cl)c1)[C@@H](C)CN([C@H](C)CO)S(=O)(=O)c1ccc(Cl)cc1` gave a relative growth of 0.816.
`Cn1cnc(S(=O)(=O)N[C@@H]2C=C[C@H](CC(=O)Nc3ccccc3)O[C@@H]2CO)c1` displayed a relative growth of 0.99.
The figure for `C[C@@H]1CN([C@H](C)CO)S(=O)(=O)c2ccc(C#CC(C)(C)O)cc2O[C@H]1CN(C)Cc1ccccc1` is 0.676; for `NC(=O)NO` it is 1.14.
Compound `Clc1ccccc1C(c1ccccc1)(c1ccccc1)n1ccnc1` displayed a relative growth of 1.95.
The figure for `O=C1O[C@@H](c2ccccc2)[C@@H](c2ccccc2)N2[C@@H](c3ccc(OCCO)cc3)[C@]3(C(=O)Nc4ccccc43)[C@@H](C(=O)Nc3nc4ccccc4s3)[C@H]12` is 0.944.
As to `COc1cccc(NC(=O)N2C[C@H](O)COC[C@H]3O[C@@H](CC(=O)NCc4ccccc4F)CC[C@@H]32)c1`, the relative growth is 0.793.
The figure for `CS(=O)(=O)NCCc1ccccc1` is 1.04; for `COc1cccc(NC(=O)N2C[C@H](O)COC[C@@H]3O[C@H](CC(=O)NCc4ccccc4F)CC[C@H]32)c1` it is 0.988.
